Binding of CDR-mutated scFvs to a peptide of the spike HR2 region

Target peptide (SARS-CoV-2 spike, HR2 region): PDVDLGDISGINAS

Parent: Ab-14, a human scFv built as VH, a (GGGGS)3 linker, VL. Only the CDRs of the heavy chain vary.
VH: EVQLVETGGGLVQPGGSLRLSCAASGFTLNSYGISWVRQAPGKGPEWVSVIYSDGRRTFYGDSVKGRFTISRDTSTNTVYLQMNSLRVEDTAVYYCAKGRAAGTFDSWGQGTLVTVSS
VL: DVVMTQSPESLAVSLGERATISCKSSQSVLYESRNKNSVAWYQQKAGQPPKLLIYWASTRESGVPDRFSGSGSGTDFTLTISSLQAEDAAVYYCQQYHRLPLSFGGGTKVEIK

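The parent was found by panning a naive human phage display library on the peptide. This is the validation round: designs drawn from the data on random variants, tested in the same kind of assay. Several design methods are mixed in this list. The assay is AlphaSeq: two haploid yeast populations carry antibody and antigen on their surface. After mating in shaken culture at 30 °C for 16 h, diploids were selected and their barcode pairs sequenced. Scores were corrected for input abundance and mapped to Kd with protein pairs of known affinity run in the same pool. The assay was run in six technical replicates.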

Substitutions are numbered in sequence along the VH above, starting at 1 (not Kabat). This list holds designs with at most six substitutions. Kd is apparent (estimated from mating counts) and averaged on the log scale over replicates with a signal. Smaller is tighter. An entry "no signal" has no value in the source: the pair was not observed among the diploids in any replicate. This suggests poor binding but is not conclusive.

The variant T28S+G61D+A101L showed 4.9 nM (6 of 6 replicates; controls 0 of 18). The variant R100S+A101E+S107T showed 1.4 nM (6 of 6 replicates; controls 0 of 18). The variant N30K+S31E+G103V+S107L gave no signal (0 of 6 replicates; controls 0 of 18). The variant T28S+S31Q+F59Q+G61S showed 5.4 nM (6 of 6 replicates; controls 0 of 18). For T28G+S63Q+R100K+A101T, the assay gave 33 nM (6 of 6 replicates; controls 0 of 18).

With T28S+S31E+G61A+R100S the result was 730 pM (6 of 6 replicates; controls 0 of 18). For S31E+G61D+D106I, the assay gave no signal (0 of 6 replicates; controls 0 of 18). The variant T28E+S53A+T58W showed 6.4 nM (5 of 6 replicates; controls 0 of 18). The variant T28G+G61I+R100Q+A101I showed no signal (0 of 6 replicates; controls 0 of 18). For N30E+S53A+T58V+G61S+S107Q, the assay gave 900 pM (6 of 6 replicates; controls 0 of 18).

The variant N30D+A101V+S107Q gave 4.2 nM (6 of 6 replicates; controls 0 of 18). The variant S63Q+A102K showed no signal (0 of 6 replicates; controls 0 of 18). For T28D+S31E+S53A+R56K+G61A+R100Q, the assay gave 250 pM (6 of 6 replicates; controls 0 of 18). The variant T28D+S63W+A101T gave 16 nM (6 of 6 replicates; controls 1 of 18). For T28N+R56L+T58D+R100E+D106F, the assay gave no signal (0 of 6 replicates; controls 0 of 18).

The variant T28Q+G61Q+S63Q+R100Q+A101T gave 40 nM (2 of 6 replicates; controls 0 of 18). The variant T28N+T58S+A101Q gave 180 nM (6 of 6 replicates; controls 0 of 18). With T28D+A101R+T104W+D106N the result was no signal (0 of 6 replicates; controls 1 of 18). For S31D+G61K+A101V, the assay gave 9.7 nM (6 of 6 replicates; controls 0 of 18). For T28W+S53A+R100E, the assay gave 4.6 nM (3 of 6 replicates; controls 0 of 18).

The variant F59W+A101E+G103W+S107Q gave 4.3 nM (6 of 6 replicates; controls 0 of 18). The variant S31E+S63H+A101T showed 6.7 nM (6 of 6 replicates; controls 1 of 18). With T28S+G61I+A101Y the result was 88 nM (4 of 6 replicates; controls 0 of 18). The variant S31E+G61T+T104I gave no signal (0 of 6 replicates; controls 0 of 18). For T28R+G61I, the assay gave 42 nM (1 of 6 replicates; controls 0 of 18).

The variant S31E+D62N+A101T showed 7.5 nM (6 of 6 replicates; controls 1 of 18). With T28S+N30E+G61H the result was 3.5 nM (4 of 6 replicates; controls 0 of 18). With F59A+A101L+G103D the result was no signal (0 of 6 replicates; controls 0 of 18). For S31D+A101T+S107K, the assay gave 2.9 nM (6 of 6 replicates; controls 0 of 18). With T28G+S53A+R100K+S107V the result was 950 pM (6 of 6 replicates; controls 0 of 18).

The authors' rule: three or more of the six replicates give a measured affinity, fewer mean a poor binder. The range of this assay differs from that of the first round, and the authors advise against merging the two. As a blank, each scFv also met three strains without target: over all heavy chain designs, 1% of these pairings were detected, typically at 120 nM and seldom below 7.0 nM. The control count says in how many pairings with the empty strains this scFv gave a signal.

Values reported by Li et al. 2023, doi:10.1038/s41467-023-39022-2 (FLAb copy).